Values of other authors as cited in US20250367233A1, “NOVEL PHARMACEUTICAL COMPOSITION CONTAINING IRON AND MEGLUMINE” (priority 2024, published 2025).

Conditions: cited from earlier work

In the case of iron dextran, the “risk for anaphylaxis at first exposure” value (first exposure, IV iron, JAMA. 2015, 314(19):2062-2068) is listed as 68 per 100,000 persons and the “adjusted odds ratio (OR) of anaphylaxis” value (iron dextran versus all non-dextran IV iron products combined, 95% CI, 2.0-3.3, P<0.001) is listed as 2.6.
